Sequences of proteins named here, by UniProt entry; tags and fusion partners are left off. Residues count along the entry.
UniProt P04626, 676-1255: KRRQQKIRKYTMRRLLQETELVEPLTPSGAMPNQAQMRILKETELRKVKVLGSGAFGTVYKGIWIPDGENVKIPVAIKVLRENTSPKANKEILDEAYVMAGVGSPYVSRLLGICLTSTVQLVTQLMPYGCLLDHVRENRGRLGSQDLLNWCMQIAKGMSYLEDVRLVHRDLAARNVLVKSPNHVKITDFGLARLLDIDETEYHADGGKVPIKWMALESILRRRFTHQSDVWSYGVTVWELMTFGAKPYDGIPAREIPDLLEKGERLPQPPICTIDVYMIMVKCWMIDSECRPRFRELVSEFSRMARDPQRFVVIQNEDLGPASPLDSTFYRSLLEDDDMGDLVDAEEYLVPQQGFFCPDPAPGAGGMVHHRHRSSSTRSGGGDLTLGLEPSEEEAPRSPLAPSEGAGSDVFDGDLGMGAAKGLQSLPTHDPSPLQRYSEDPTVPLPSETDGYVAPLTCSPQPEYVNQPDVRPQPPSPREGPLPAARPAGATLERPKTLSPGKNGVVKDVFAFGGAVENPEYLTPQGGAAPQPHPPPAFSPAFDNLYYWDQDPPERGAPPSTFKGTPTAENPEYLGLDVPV

In US20080161320A1, “FUSED BICYCLIC PYRIMIDINES AS PTK INHIBITORS CONTAINING A ZINC BINDING MOIETY” (priority 2006, published 2008):

Biological target: human HER2/ErbB2 (Homo sapiens, UniProt P04626)
Assay: HTScan Receptor Kinase Assay, HER2/ErbB2;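 further: europium time-resolved fluorescence detection of anti-phosphotyrosine antibody binding to biotinylated FLT3 (Tyr589) peptide phosphorylated by the kinase, 30 min reaction at room temperature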

- IC50: 0.1 to 1 µM
SMILES: C[C@@H](Nc1ncnc2[nH]c(-c3ccc(CNCCCCCCCC(=O)NO)cc3)cc12)c1ccccc1 [Compound 34, (R)—N-hydroxy-8-(4-(4-(1-phenylethylamino)-7H-pyrrolo[2,3-d]pyrimidin-6-yl)benzylamino)-octanamide]
